From patent US3965109A, “Certain aryl amino pyridines” (priority 1971, dated 1976) come the findings set out here.

Common to all, as to format: in vivo
Test [1] deals with Musca domestica (houseflies). Briefly: Pest toxicity test, contact test. The following applies: 0.1% by weight; milk/sugar; 2 days; flies sprayed directly.
Test [2] concerns Tetranychus telarius (red spider mites, adults). Briefly: Pest toxicity test. Conditions: 0.1% by weight; French bean; 3 days.
In test [3] the test system is Aedes aegypti (mosquito adults). Briefly: Pest toxicity test. The following applies: 0.01% by weight; plywood; 1 day.
The subject of test [4] is Plutella maculipennis (diamond back moth larvae). Briefly: Pest toxicity test. Conditions: 0.1% by weight; mustard/paper; 2 days.
The test system of test [5] is Megoura viceae. Briefly: Pest toxicity test. Conditions: 0.1% by weight; broad bean; 2 days.
The subject of test [6] is Pieris brassicae (cabbage white caterpillars). Briefly: Pest toxicity test. The following applies: 0.1% by weight, 2 days.
In test [7] the test system is Aedes aegypti (mosquito larvae). Briefly: Pest toxicity test. Conditions: 0.01% by weight; water; 1 day.
The test system of test [8] is Phaedon cochleariae (mustard beetles). Briefly: Pest toxicity test. Conditions: 0.1% by weight; mustard/paper; 2 days.
Test [9] relates to Aphis fabae. Briefly: Pest toxicity test. Conditions: 0.1% by weight; broad bean; 2 days.
The subject of test [10] is Meloidogyne incognita (nematodes). Briefly: Pest toxicity test. The following applies: 0.01% by weight; water; 1 day.
Test [11] relates to Tetranychus telarius (red spider mites, eggs). Briefly: Pest toxicity test. The following applies: 0.1% by weight; French bean; 3 days.

SMILES strings stand for the structures.

Consider `O=[N+]([O-])c1cc([N+](=O)[O-])c(Nc2c(Cl)c(F)nc(F)c2Cl)c([N+](=O)[O-])c1`, for which, in test [1], the “Mortality grading (kill), contact test” value is 0 (O represents less than 30% kill). Further, the “Mortality grading (kill)” value in test [2] is 3 (3 represents over 90% kill); in test [3], 0 (O represents less than 30% kill); in test [4] it was 0 (O represents less than 30% kill); in test [5], 3 (3 represents over 90% kill); in test [6] it was 0 (O represents less than 30% kill); in [7] it was 0 (O represents less than 30% kill). Also, the “Mortality grading (kill)” value is 0 (O represents less than 30% kill) in test [8], 3 (3 represents over 90% kill) in test [9], 2 (2 represents 60 - 90% kill) in test [10] and 3 (3 represents over 90% kill) in test [11].
